Key:
Homo sapiens [1] = organism: Homo sapiens; assay: Selectivity for androgen receptor over estrogen receptor
Homo sapiens [2] = organism: Homo sapiens; assay: Selectivity for androgen receptor over glucocorticoid receptor
Homo sapiens [3] = organism: Homo sapiens; assay: Selectivity for androgen receptor over mineralocorticoid receptor
Homo sapiens [4] = organism: Homo sapiens; assay: Selectivity for androgen receptor over progesterone receptor

Structure (SMILES)	Selectivity ratio (Homo sapiens [1])	Selectivity ratio (Homo sapiens [2])	Selectivity ratio (Homo sapiens [3])	Selectivity ratio (Homo sapiens [4])
O=c1cc(C(F)(F)F)c2ccc(NCC(F)(F)C(F)(F)F)cc2[nH]1	> 100	> 100	> 100	> 10
CCc1cc2c(C(F)(F)F)cc(=O)[nH]c2cc1N	> 100	> 100	> 100	> 10
CNc1ccc2c(C(F)(F)F)cc(=O)[nH]c2c1	> 100	> 100	> 100	> 10
CCCc1cc2c(C(F)(F)F)cc(=O)[nH]c2cc1N	> 100	> 100	> 100	> 10
CC(C)Nc1ccc2c(C(F)(F)F)cc(=O)[nH]c2c1	> 100	> 100	> 100	> 10
O=c1cc(C(F)(F)F)c2cc(NCC(F)(F)F)ccc2[nH]1	> 100	> 100	> 100	> 10
O=c1cc(C(F)(F)F)c2ccc(NCC(F)(F)F)cc2[nH]1	> 100	> 100	> 100	> 10
CCNc1ccc2c(C(F)(F)F)cc(=O)[nH]c2c1	> 100	> 100	> 100	> 10
CCN(CC(F)(F)F)c1ccc2c(C(F)(F)F)cc(=O)[nH]c2c1	> 100	> 100	> 100	> 10
